Experiment [1] deals with T1, cloned human δ-opioid receptor (Homo sapiens, UniProt P41143).
T1 construct: expressed in transfected cells; host or cells: CHO cells
The experiment in a line: Inhibition of DPDPE-stimulated [35S]GTPγS binding. The experiment is classed as biochemical.

The chains behind the UniProt entries cited, without tags or fusion partners.
UniProt P35372, whole entry: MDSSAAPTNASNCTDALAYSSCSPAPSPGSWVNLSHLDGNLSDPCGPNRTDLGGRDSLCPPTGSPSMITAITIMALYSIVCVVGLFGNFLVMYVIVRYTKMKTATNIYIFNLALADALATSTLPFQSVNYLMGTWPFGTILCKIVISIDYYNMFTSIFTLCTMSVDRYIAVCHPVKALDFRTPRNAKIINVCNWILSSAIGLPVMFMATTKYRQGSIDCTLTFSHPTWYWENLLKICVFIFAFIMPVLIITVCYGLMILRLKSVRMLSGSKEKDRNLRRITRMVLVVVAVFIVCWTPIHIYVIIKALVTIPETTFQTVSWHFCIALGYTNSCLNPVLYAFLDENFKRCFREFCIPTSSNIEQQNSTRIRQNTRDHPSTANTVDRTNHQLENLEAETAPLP

Experiment [2] has as its target T2, cloned human μ-opioid receptor (Homo sapiens, UniProt P35372).
T2 construct: expressed in transfected cells; host or cells: CHO cells
The experiment in a line: Inhibition of DAMGO-stimulated [35S]GTPγS binding. It counts as biochemical.

`CC[C@H](C)[C@@H](CN1CC[C@@](C)(c2cccc(OC)c2)[C@@H](C)C1)NC(=O)[C@H]1Cc2ccc(O)cc2CN1` [Compound 8f, (3R)-7-Hydroxy-N-[(1S,2S)-1-{[(3R,4R)-4-(3-methoxyphenyl)-3,4-dimethylpiperidin-1-yl]methyl}-2-methylbutanyl]-1,2,3,4-tetrahydroisoquinoline-3-carboxamide] yielded a Kb in experiment [1] of 1170 ± 400 nM.

Turning to `CC[C@H](C)[C@@H](CN1CC[C@@](C)(c2cccc(OC)c2)[C@@H](C)C1)NC(=O)[C@@]1(C)Cc2ccc(O)cc2CN1` [Compound 8n, (3R)-7-Hydroxy-N-[(1S,2S)-1-{[(3R,4R)-4-(3-methoxyphenyl)-3,4-dimethylpiperidin-1-yl]methyl}-2-methylbutanyl)-3-methyl-1,2,3,4-tetrahydroisoquinoline-3-carboxamide], in experiment [2], the Kb is 59.1 ± 16 nM.

With `COc1cccc([C@]2(C)CCN(C[C@@H](NC(=O)[C@@]3(C)Cc4ccc(O)cc4CN3)C(C)C)C[C@@H]2C)c1` [Compound 8h, (3R)-7-Hydroxy-N-[(1S)-1-{[(3R,4R)-4-(3-methoxyphenyl)-3,4-dimethylpiperidin-1-yl]methyl}-2-methylpropyl]-3-methyl-1,2,3,4-tetrahydroisoquinoline-3-carboxamide], in experiment [2], the Kb stood at 123 ± 30 nM.

Take `COc1cccc([C@]2(C)CCN(C[C@@H](NC(=O)[C@@]3(C)Cc4ccc(OC)cc4CN3)C(C)C)C[C@@H]2C)c1` [Compound 8l, (3R)-7-Methoxy-N-[(1S)-1-{[(3R,4R)-4-(3-methoxyphenyl)-3,4-dimethylpiperidin-1-yl]methyl}-2-methylpropyl]-3-methyl-1,2,3,4-tetrahydroisoquinoline-3-carboxamide]: the Kb in experiment [2] is 1450 ± 490 nM.

In experiment [1], `COc1ccc2c(c1)CN(C)[C@@](C)(C(=O)N[C@H](CN1CC[C@@](C)(c3cccc(O)c3)[C@@H](C)C1)C(C)C)C2` [Compound 8o, (3R)-7-Methoxy-N-[(1S)-1-{[(3R,4R)-4-(3-hydroxyphenyl)-3,4-dimethylpiperidin-1-yl]methyl}-2-methylpropyl]-2,3-dimethyl-1,2,3,4-tetrahydroisoquinoline-3-carboxamide] came in with a Kb of 117 ± 30 nM.

For the compound `CC[C@H](C)[C@@H](CN1CC[C@@](C)(c2cccc(O)c2)[C@@H](C)C1)NC(=O)[C@@]1(C)Cc2ccc(O)cc2CN1` [Compound 8i, (3R)-7-Hydroxy-N-[(1S,2S)-1-{[(3R,4R)-4-(3-hydroxyphenyl)-3,4-dimethylpiperidin-1-yl]methyl}-2-methylbutanyl]-3-methyl-1,2,3,4-tetrahydroisoquinoline-3-carboxamide], in experiment [1], the Kb was 149 ± 13 nM.

Source of the values: patent US20130158072A1, “KAPPA OPIOID RECEPTOR BINDING LIGANDS” (Research Triangle Institute, priority 2010, published 2013).
